Results: patent US20260078130A1, “NAMPT MODULATORS, PREPARATIONS, AND USES THEREOF” (SIRONAX LTD., priority 2022, published 2026)
Where two headings read alike, the source gives them in different places.

The chains behind the UniProt entries cited, without tags or fusion partners.
UniProt P43490, whole entry: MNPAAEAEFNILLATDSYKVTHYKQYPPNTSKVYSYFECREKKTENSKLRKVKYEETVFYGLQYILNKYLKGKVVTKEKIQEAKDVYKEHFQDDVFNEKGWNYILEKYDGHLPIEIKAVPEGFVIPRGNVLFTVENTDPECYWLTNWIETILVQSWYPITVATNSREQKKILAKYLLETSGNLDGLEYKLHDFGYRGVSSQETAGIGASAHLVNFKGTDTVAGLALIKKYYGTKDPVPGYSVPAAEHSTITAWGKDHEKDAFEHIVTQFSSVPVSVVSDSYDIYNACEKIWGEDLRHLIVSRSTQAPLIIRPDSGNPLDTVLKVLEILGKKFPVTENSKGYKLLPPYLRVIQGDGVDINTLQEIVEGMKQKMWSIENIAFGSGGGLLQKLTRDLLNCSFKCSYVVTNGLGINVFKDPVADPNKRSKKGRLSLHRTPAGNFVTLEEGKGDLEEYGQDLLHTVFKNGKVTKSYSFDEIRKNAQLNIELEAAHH

What was measured:
[1] = biological target: human enzyme NAMPT (full length) (Homo sapiens, UniProt P43490); assay: NMN fluorescence biochemical assay (stimulation of NMN synthesis by NAMPT); settings: for Enzymatic Emax: fold change of maximal activation compared to DMSO; for EC50: read-out: Enzymatic EC50, concentration giving half-maximal activation
[2] = system: endogenous NAMPT in U2OS cells; assay: Cellular NAD+ modulation assay (NAD/NADH-Glo, U2OS cells)
[3] = NMN fluorescence assay, purified human NAMPT 100 nM
[4] = 24 hours incubation, cellular NAD+
[5] = read-out: Cellular EC50, 24 hours incubation, cellular NAD+
[6] = NMN synthesis by purified human NAMPT (100 nM)
[7] = 24 hours incubation with compound
[8] = read-out: Cellular EC50, 24 hours incubation with compound

| Structure (SMILES) | Enzymatic Emax [1] | EC50 [1, 3] | Cellular Emax [2, 4] | EC50 [2, 5] | EC50 [1, 6] | Cellular Emax [2, 7] | EC50 [2, 8] |
| --- | --- | --- | --- | --- | --- | --- | --- |
| Cn1ncc(Cl)c1CC1c2cc(Cl)cc(F)c2C(=O)N1C[C@H]1C[C@]2(CNC(=O)O2)C1 (single isomer, unassigned) [Compound 553/554 (RT = 4.617 min)] | A (A>3) | 0.5 to 5 µM | B (1.5≥B>1.2) | < 0.5 µM |  |  |  |
| CN1CCCC(CC2c3ccccc3C(=O)N2Cc2ccc3[nH]c(=O)oc3c2)C1=O (racemic) [Mixture of 235 and 236/mixture of 237 and 238 (RT = 3.63 min] | A (A>3) |  |  |  | 0.5 to 5 µM | A (A>1.5) | 0.5 to 5 µM |
| COc1ccc(CN2C(=O)c3ccccc3C2Cc2c(Cl)cnn2C)cc1 (single isomer, unassigned) [Compound 617/618 (RT = 2.932 min)] | A (A>3) | 0.5 to 5 µM | B (1.5≥B>1.2) | < 0.5 µM |  |  |  |
| CC1c2cc(Br)ccc2C(=O)N1Cc1ccc2[nH]c(=O)oc2c1 (single isomer, unassigned) [Compound 138/139 (Int 10/Int11: RT = 1.728 min as a starting] | B (3≥B>2) |  |  |  |  | A (A>1.5) | 0.5 to 5 µM |
| N#Cc1cccnc1CC1c2ccccc2C(=O)N1Cc1ccc2[nH]c(=O)oc2c1 (single isomer, unassigned) [Compound 258/259 (RT = 2.246 min)] | A (A>3) |  |  |  | 0.5 to 5 µM | A (A>1.5) | < 0.5 µM |
| Cn1nc(Cl)c(Cl)c1CC1c2ccccc2C(=O)N1C[C@H]1C[C@]2(CNC(=O)O2)C1 (single isomer, unassigned) [Compound 533/534 (RT = 1.708 min)] | B (3≥B>2) | < 0.5 µM | B (1.5≥B>1.2) | < 0.5 µM |  |  |  |
| O=C1c2ccccc2C(C2CC2)N1Cc1ccc2[nH]c(=O)oc2c1 (single isomer, unassigned) [Compound 73/74 (RT = 4.563 min)] | A (A>3) |  |  |  | 0.5 to 5 µM | A (A>1.5) | 0.5 to 5 µM |
| [2H]C1([2H])NC(=O)O[C@]12C[C@@H](CN1C(=O)c3ccccc3C1Cc1c(Cl)cnn1C)C2 (single isomer, unassigned) [Compound 536/537 (RT = 2.643 min)] | A (A>3) | < 0.5 µM | A (A>1.5) | < 0.5 µM |  |  |  |
| O=C1c2ccccc2C(Cc2ccccc2)N1Cc1ccc2[nH]c(=O)oc2c1 (single isomer, unassigned) [Compound 107/108 (RT = 3.042 min)] | A (A>3) |  |  |  | 0.5 to 5 µM | A (A>1.5) | 0.5 to 5 µM |
| N#CNC1=NCC2(CC(CN3C(=O)c4ccccc4C3Cc3ncccc3Br)C2)O1 (single isomer, unassigned) [Compound 530/531 (RT = 2.900 min)] | A (A>3) | 0.5 to 5 µM | A (A>1.5) | < 0.5 µM |  |  |  |
| Cc1ccnc(C#N)c1CC1c2ccccc2C(=O)N1C[C@H]1C[C@]2(CNC(=O)O2)C1 (single isomer, unassigned) [Compound 407/408 (RT = 3.760 min)] | B (3≥B>2) | < 0.5 µM | A (A>1.5) | < 0.5 µM |  |  |  |
| O=C1c2ccccc2C(Cc2ccccc2C(F)(F)F)N1Cc1ccc2[nH]c(=O)oc2c1 (single isomer, unassigned) [Compound 135/136 (RT = 2.971 min)] | A (A>3) |  |  |  | < 0.5 µM | A (A>1.5) | 0.5 to 5 µM |
| Cn1ncc(Cl)c1CC1c2ccccc2C(=O)N1Cc1ccc2[nH]nnc2c1 (single isomer, unassigned) [Compound 319/320 (RT = 4.047 min)] | A (A>3) | < 0.5 µM | B (1.5≥B>1.2) | < 0.5 µM |  |  |  |
| CC1c2cc(CN3CCOCC3)ccc2C(=O)N1Cc1ccc2[nH]c(=O)oc2c1 (single isomer, unassigned) [Compound 144/145 (Int 10/Int11: RT = 1.969 min as a starting] | A (A>3) |  |  |  |  | A (A>1.5) | 0.5 to 5 µM |
| CC(c1ccccn1)C1c2ccccc2C(=O)N1Cc1ccc2[nH]c(=O)oc2c1 (racemic) [Mixture of 152 and 153/mixture of 154 and 155 (RT = 3.68 min] | B (3≥B>2) |  |  |  |  | A (A>1.5) | 5 to 50 µM |
| Cn1ncc(Cl)c1CC1c2cccc(F)c2C(=O)N1C[C@H]1C[C@]2(CNC(=O)O2)C1 (single isomer, unassigned) [Compound 426/427 (RT = 3.262 min)] | B (3≥B>2) | < 0.5 µM | A (A>1.5) | < 0.5 µM |  |  |  |
| CC1c2cc(Br)ccc2C(=O)N1Cc1ccc2[nH]c(=O)oc2c1 (single isomer, unassigned) [Compound 138/139 (Int 10/Int11: RT = 1.969 min as a starting] | A (A>3) |  |  |  | 0.5 to 5 µM | A (A>1.5) | 0.5 to 5 µM |
| Cc1ccnc(C#N)c1CC1c2ccccc2C(=O)N1Cc1ccc2[nH]nnc2c1 (single isomer, unassigned) [Compound 368/369 (RT = 3.334 min)] | B (3≥B>2) | < 0.5 µM | A (A>1.5) | < 0.5 µM |  |  |  |
| CC1(CN2C(=O)c3ccccc3C2Cc2ncccc2Br)CC2(CNC(=O)O2)C1 (single isomer, unassigned) [Compound 376/377 (RT = 4.54 min)] | B (3≥B>2) | 0.5 to 5 µM | A (A>1.5) | < 0.5 µM |  |  |  |
| N#CNC1=NCC2(CC(CN3C(=O)c4ccccc4C3Cc3ncccc3Br)C2)O1 (single isomer, unassigned) [Compound 530/531 (RT = 2.842 min)] | B (3≥B>2) | < 0.5 µM | B (1.5≥B>1.2) | < 0.5 µM |  |  |  |
| O=C1NC[C@]2(C[C@H](CN3C(=O)c4ccccc4C3Cc3ncccc3Br)C2)O1 (single isomer, unassigned) [Compound 345/346 (RT = 2.358 min)] | A (A>3) | < 0.5 µM | A (A>1.5) | < 0.5 µM |  |  |  |
| COc1ccc(CN2C(=O)c3ccccc3C2Cc2c(Cl)cnn2C)cc1F (single isomer, unassigned) [Compound 633/634 (RT = 2.496 min)] | A (A>3) | 0.5 to 5 µM | B (1.5≥B>1.2) | < 0.5 µM |  |  |  |
| O=C1c2ccccc2C(Cc2ccccc2C(F)(F)F)N1Cc1ccc2[nH]c(=O)oc2c1 (single isomer, unassigned) [Compound 135/136 (RT = 2.075 min)] | B (3≥B>2) |  |  |  | 0.5 to 5 µM | B (1.5≥B>1.2) | 5 to 50 µM |
| O=C1c2ccccc2C(Cc2ccccc2)N1Cc1ccc2[nH]c(=O)oc2c1 (single isomer, unassigned) [Compound 107/108 (RT = 2.417 min)] | B (3≥B>2) |  |  |  |  | C (1.2≥C) | 5 to 50 µM |
| O=C1c2ccccc2C(C2CC2)N1Cc1ccc2[nH]c(=O)oc2c1 (single isomer, unassigned) [Compound 73/74 (RT = 3.760 min)] | B (3≥B>2) |  |  |  |  | A (A>1.5) | 5 to 50 µM |
